This assay can be described thus: Selectivity index, ratio of IC50 for inhibition of human recombinant PARP-1 to IC50 for inhibition of recombinant mouse PARP-2.

For one compound, Ratio IC50 results are on record in ChEMBL document CHEMBL5375994, “Advances in Development of Selective Antitumor Inhibitors That Target PARP-1” (J Med Chem, 2023).

Regarding `Cn1cccc1/C=C1\C(=O)NC(=O)c2ccccc21`, the Ratio IC50 was determined as 100.
